# Reference: ChEMBL document CHEMBL3046736, “Kinetic studies of novel inhibitors of endomorphin degrading enzymes” (Med Chem Res, 2012)
# Chains of the proteins cited; added tags and fusions are not shown.
# UniProt P27487, whole entry: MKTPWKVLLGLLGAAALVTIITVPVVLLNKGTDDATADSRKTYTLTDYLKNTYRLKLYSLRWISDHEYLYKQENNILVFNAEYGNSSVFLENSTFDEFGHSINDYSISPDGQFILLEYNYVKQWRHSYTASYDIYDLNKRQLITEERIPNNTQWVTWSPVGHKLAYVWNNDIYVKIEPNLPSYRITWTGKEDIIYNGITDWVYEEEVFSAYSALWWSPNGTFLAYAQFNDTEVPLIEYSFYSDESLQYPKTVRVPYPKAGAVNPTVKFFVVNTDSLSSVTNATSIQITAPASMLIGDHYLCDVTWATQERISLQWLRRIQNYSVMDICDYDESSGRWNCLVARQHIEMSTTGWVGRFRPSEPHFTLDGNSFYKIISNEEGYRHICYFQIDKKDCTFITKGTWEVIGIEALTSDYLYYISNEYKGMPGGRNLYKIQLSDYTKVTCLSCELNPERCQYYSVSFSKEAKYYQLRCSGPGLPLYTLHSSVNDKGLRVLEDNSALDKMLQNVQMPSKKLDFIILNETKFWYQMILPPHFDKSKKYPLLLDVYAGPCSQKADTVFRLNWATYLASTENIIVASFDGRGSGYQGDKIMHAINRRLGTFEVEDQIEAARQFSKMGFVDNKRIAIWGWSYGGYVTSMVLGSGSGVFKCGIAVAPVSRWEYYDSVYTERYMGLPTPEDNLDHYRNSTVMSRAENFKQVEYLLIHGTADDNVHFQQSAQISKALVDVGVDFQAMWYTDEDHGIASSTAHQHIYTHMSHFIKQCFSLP
# pKi: −log10 of the molar value.
# Tests used:
# [1] = target: T1, Dipeptidyl peptidase 4 (Homo sapiens, UniProt P27487); assay: Inhibition of DPP-4 (unknown origin) assessed as inhibition of endomorphin-1 degradation after 30 min
# How it was run: (§1)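 Purified commercial DPP IV (0.002 mg protein/ml) incubated with endomorphin and inhibitor, each from 1 mM solutions in 50 mM Tris–HCl pH 7.4, at 37°C for 0, 7.5, 15, 22.5 and 30 min. Stopped on ice with 1 M HCl, centrifuged. Rate constant k from linear regression of ln(A/A0) of peptide peak area versus time; t1/2 = ln2/k. Three independent experiments in duplicate.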
# [2] = target: T1, Dipeptidyl peptidase 4; assay: Inhibition of DPP-4 (unknown origin) assessed as inhibition of endomorphin-2 degradation after 30 min; how it was run: as §1
structure (smiles),measurement,setting,value
CC[C@H](C)[C@H](N)C(=O)N1CCC[C@H]1C(=O)N[C@H](C(=O)O)[C@@H](C)CC [DIPROTIN A],pKi,[1],5.66
same,inhibition,[1],96.8%
same,pKi,[2],5.66
same,inhibition,[2],97.1%
